Laboratory results taken from US12414996B2, “Organic anion transporting peptide-based cancer imaging and therapy” (Da Zen Theranostics, Inc., priority 2014, dated 2025).

Conditions: prevention and inhibition studies, subcutaneous PC3 and MIAPaCa tumors; 10 mg/kg twice a week i.p.
Excerpt: (§1) Arrows indicate the onset of treatments. * p<0.05; ** p<0.01; *** p<0.001.
as §1

## IR-783-gemcitabine [DZ-1-gemcitabine]
  impact on mouse body weights: less impact on mouse body weights, as compared with Gemcitabine
